Experimental data as given in US20230248723A1, “PYRROLO[2,3-B]PYRAZINE COMPOUNDS AS CCCDNA INHIBITORS FOR THE TREATMENT OF HEPATITIS B VIRUS (HBV) INFECTION” (Hoffmann-La Roche Inc., priority 2017, published 2023).

How the values were obtained:
Format in all cases: cell-based
HBsAg = test: HBsAg, multiplex assay, HBV-infected PHH; conditions: patient-derived HBV GT D, MOI 40, treatment from day 3, day 10 pi
Experimental: (§1) Fresh primary human hepatocytes (PXB-PHH) harvested from humanized mice (uPA/SCID mice)—herein called PHH—were obtained from PhoenixBio Co., Ltd (Japan). Cells were seeded on a collagen I-coated plate at the following cell density: 35,000 cells/well (384-well), 70,000 cells/well (96-well), or, 400,000 cells/well (24-well) in modified hepatocyte clonal growth medium (dHCGM). dHCGM is a DMEM medium containing 100 U/ml Penicillin, 100 μg/ml Streptomycin, 20 mM Hopes, 44 mM NaHCO3, 15 μg/ml L-proline, 0.25 μg/ml insulin, 50 nM Dexamethazone, 5 ng/ml EGF, 0.1 mM Asc-2P, 2% DMSO and 10% FBS (Ishida et al., 2015). Cells were cultured at 37° C. incubator in a humidified atmosphere with 5% CO2. […]
(§2) Following 4 day of maturation with 1 μM MB-1, HLC were incubated with HBV (purified from CHB individuals) at multiplicity of infection (MOI) 10-40 without PEG for 24 hr; virus inoculum was removed the following day. […] Compound effect on HBV and cellular toxicity was measured by multiplex assay (HBsAg, HBeAg, albumin), branched DNA (pgRNA), or digital PCR (cccDNA) and depicted as % of inhibition compared to DMSO control. […]
(§3) A custom, Luminex-based multiplex assay that simultaneously measured HBeAg, albumin, and HBsAg was developed by Radix BioSolutions (Georgetown, Tex.). […] Samples were read on FlexMAP 3D (Luminex) and analyzed by Genedata software.

HBeAg = test: HBeAg, multiplex assay, HBV-infected PHH; conditions: patient-derived HBV GT D, MOI 40, treatment from day 3, day 10 pi
Experimental: as §1, §2, §3

HBV DNA = HBV DNA in culture medium of HBV-infected PHH; conditions: patient-derived HBV GT D, MOI 40, treatment from day 3, day 10 pi
Experimental: FIG. 8: Establishment of dPCR assay for cccDNA quantification. (A) Detection ranges of TaqMan-PCR assay limits accurate determination of cccDNA copy number from 96- and 384-well plate. A 3.2-kb, linearized plasmid HBV is used as a standard curve for relative quantification of HBV DNA by TaqMan-PCR. Plasmid was diluted 10-fold (from 2×10^9 copies/μl to 2×10^3 copies/μl) and HBV DNA was amplified using core primers (Werle-Lapostolle et al., 2004); the LLOD of this assay (˜1×10^3 copies/μl) overlaps with the lower levels of cccDNA present in cells grown in 384-well plate. The total amount of cccDNA in HLC and PHH in 384-well plate is ˜1,200-12,000 copies/well (assuming 40% infection rate of ˜30K cells seeded, and on average, there is 0.1-1 cccDNA copy/cell) (Nassal, 2015). […] In contrast to TaqMan-PCR (relative quantification method), digital PCR (dPCR) is an absolute quantification method without the need of standard curve. […] Low signal was detected with cccDNA primer, indicating non-specific amplification of RC-DNA. […] At day 10 pi, culture media were harvested and measured for HBV DNA, HBsAg, and HBeAg. […] Cells were lysed and treated with T5 exonuclease, cccDNA was then measured by dPCR on QuantStudio 12K Flex Real-Time PCR System (AB); 4 subarrays (256 through-holes) were used for each sample. […] Cells were harvested at day 10 pi; viral markers and albumin were measured from culture medium. […]

cccDNA = cccDNA assay (digital PCR), HBV-infected PHH; conditions: patient-derived HBV GT D, MOI 40, treatment from day 3, day 10 pi, dPCR
Experimental: as §1, §2
HBV-infected cells (in 384- or 96-well plate) were lysed with Cells-to-CT Lysis Reagents according to manufacturer's instruction (Thermo Scientific). […] Digital PCR assay was run on QuantStudio 12K Flex (AB) and data was analyzed by Digital Suite Software (AB).

## Roferon: marketed HBV drug, interferon-α, an immunomodulator [reference compound]
HBsAg
  effect on HBsAg (other viral markers): no effect
HBeAg
  effect on HBeAg (other viral markers): no effect
HBV DNA
  effect on HBV DNA: highly potent
cccDNA
  effect on cccDNA (other viral markers): no effect
